For experiment [1], the target named is T1, Akt3 (Homo sapiens, UniProt Q9Y243). Description: Akt3 inhibition activity of selected compounds. Format: cell-based. The conditions noted are these: read-out: IC50, Akt3 inhibition activity.
In experiment [2] the target is T1, Akt3. Description: Akt3 activation activity of selected compounds. Format: cell-based. As to conditions: read-out: EC50, Akt3 activation activity.

By UniProt entry, the sequences of proteins in these tests, tags left out.
UniProt Q9Y243, whole entry: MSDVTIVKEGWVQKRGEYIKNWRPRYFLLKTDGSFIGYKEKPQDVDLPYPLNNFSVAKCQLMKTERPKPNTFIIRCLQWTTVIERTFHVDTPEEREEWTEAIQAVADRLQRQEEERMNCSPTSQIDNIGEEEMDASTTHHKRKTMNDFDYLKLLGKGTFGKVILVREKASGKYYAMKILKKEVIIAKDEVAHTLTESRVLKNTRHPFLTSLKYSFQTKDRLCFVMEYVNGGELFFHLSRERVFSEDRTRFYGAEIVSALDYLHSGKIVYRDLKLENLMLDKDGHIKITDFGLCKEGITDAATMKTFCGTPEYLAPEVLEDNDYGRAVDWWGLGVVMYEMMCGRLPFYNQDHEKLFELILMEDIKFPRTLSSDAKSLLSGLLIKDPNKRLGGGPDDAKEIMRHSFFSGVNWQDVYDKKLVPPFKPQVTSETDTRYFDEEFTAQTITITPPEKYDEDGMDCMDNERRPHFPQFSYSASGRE

Molecules are shown by their SMILES.

Usually IC50 stands for the concentration at which inhibition is half-maximal. For orientation: EC50 means the midpoint of the concentration-response curve.

For the compound `Cc1cc(Nc2ccc3c(c2)CN(c2cccc(Nc4cccc(F)c4)c2)C3=O)ccn1`, the 50% inhibitory concentration (IC50) at Akt3 [1] was less than 500 nM.
On to `Cc1cc(Nc2ccc3[nH]c(-c4ccc(Nc5cc(C)nc6ccc(N7CCOCC7)cc56)cc4)nc3c2)ccn1`, for which, at Akt3 [2], the EC50 was less than 100 nM.
